Test results published in US20100124537A1, “MEDICAL APPLICATIONS OF ALPHA-KETOGLUTARATE” (priority 2007, published 2010).

Test system: H. pylori, strain 119/95
Conditions: animals inoculated with PBS and salts of alpha-ketoglutaric acid (Group II A)

## O=C(O)CCC(=O)C(=O)O [AKG, alpha-ketoglutarate]
  H. pylori isolated from tissue: no isolated H. pylori
